Among the data in ChEMBL document CHEMBL1130764, “Synthesis of a potent wide-spectrum serotonin-, norepinephrine-, dopamine-reuptake inhibitor (SNDRI) and a species-selective dopamine-reuptake inhibitor based on the gamma-amino alcohol functional group” (Bioorg Med Chem Lett, 1998) are Ki and Kd values, retold here.

Protein sequences, listed by entry. Tags and fused reporters are not part of them.
UniProt P31652, whole entry: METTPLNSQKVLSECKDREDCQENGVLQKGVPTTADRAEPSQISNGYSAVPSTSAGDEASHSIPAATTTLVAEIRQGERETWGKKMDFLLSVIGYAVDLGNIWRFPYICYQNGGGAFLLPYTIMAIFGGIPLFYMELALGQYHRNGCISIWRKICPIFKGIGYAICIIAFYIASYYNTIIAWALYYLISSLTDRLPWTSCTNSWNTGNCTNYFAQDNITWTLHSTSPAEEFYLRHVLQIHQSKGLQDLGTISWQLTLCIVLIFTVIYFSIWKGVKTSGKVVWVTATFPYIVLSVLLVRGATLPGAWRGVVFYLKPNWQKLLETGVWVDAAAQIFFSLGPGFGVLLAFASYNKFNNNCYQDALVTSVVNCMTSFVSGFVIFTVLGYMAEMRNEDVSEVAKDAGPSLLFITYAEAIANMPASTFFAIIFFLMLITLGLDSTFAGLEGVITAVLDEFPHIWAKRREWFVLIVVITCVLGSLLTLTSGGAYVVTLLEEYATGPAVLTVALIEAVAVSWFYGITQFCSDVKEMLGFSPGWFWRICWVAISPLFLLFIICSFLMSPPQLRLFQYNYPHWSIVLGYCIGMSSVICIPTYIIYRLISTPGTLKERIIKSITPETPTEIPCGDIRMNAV
UniProt P31645, whole entry: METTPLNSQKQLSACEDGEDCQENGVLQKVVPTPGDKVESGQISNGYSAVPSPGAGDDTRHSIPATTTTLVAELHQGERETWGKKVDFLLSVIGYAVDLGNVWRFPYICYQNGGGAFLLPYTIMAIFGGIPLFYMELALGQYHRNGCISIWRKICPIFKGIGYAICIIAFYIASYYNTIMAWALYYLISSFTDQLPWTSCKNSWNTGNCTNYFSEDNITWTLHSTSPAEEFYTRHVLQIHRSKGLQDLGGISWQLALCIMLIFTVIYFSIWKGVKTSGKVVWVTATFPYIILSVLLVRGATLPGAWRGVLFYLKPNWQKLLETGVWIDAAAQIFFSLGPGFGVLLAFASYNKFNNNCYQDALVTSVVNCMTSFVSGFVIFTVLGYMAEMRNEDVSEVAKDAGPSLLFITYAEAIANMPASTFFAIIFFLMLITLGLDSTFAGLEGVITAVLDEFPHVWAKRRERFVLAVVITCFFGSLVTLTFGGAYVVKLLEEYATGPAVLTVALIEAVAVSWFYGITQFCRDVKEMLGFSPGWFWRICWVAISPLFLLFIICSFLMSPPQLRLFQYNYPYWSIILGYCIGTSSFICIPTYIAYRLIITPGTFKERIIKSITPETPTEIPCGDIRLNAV

Test [1] has as its target Sodium-dependent serotonin transporter (Rattus norvegicus, UniProt P31652). The test can be described thus: Inhibition of [3H]5-HT reuptake into rat frontal cortex synaptosomes. Type of test: subcellular, Brain.
Test [2] addresses T1, Sodium-dependent serotonin transporter (Homo sapiens, UniProt P31645). The test can be described thus: Equilibrium dissociation constant (KD) for Competitive binding between [3H]- imipramine and the compound at human transporter -hSERT.
The target in test [3] is T1, Sodium-dependent serotonin transporter.

In turn, `NC[C@@H](c1ccc2ccccc2c1)[C@@H](O)c1ccccc1` (racemic) gave a Ki in test [1] of 0.027 µM.

In test [2], `CN(C)C[C@@H](c1ccccc1)[C@@H](O)c1ccccc1` (racemic) yielded a Kd of 0.048 µM. The compound also returned a Ki in test [1] of 0.21 µM.

As to `CN(C)C[C@@H](c1ccccc1)[C@@H](O)C(C)(C)C` (racemic), the Kd in test [3] is 0.04 µM. For the same compound, the Ki in test [1] was 0.06 µM.

Compound `COc1ccc([C@H](CN)[C@@H](O)C2CCCCC2)cc1` (racemic) registered an equilibrium dissociation constant (Kd) in test [3] of 0.076 µM. Also, in test [1], the inhibition constant Ki was 0.164 µM.

Turning to `CN(C)C[C@@H](c1ccc2ccccc2c1)[C@@H](O)C(C)(C)C` (racemic), binding in test [3] was put at a Kd of 0.0012 µM.

The compound `Cc1cc(C)c([C@H](O)[C@@H](CN)c2ccccc2)c(C)c1` (racemic) registered a Kd in test [3] of 0.118 µM. Further, affinity in test [1] was put at a Ki of 0.643 µM.

Regarding `NC[C@@H](c1ccccc1)[C@@H](O)c1ccccc1` (racemic), the Kd in test [3] was 3.05 µM. In addition, the affinity in test [1] corresponds to a Ki of 2.73 µM.

Take `Cc1cc(C)c([C@H](O)[C@@H](CN(C)C)c2ccccc2)c(C)c1` (racemic): in test [3], binding was characterised by a dissociation constant (Kd) of 0.0085 µM. This compound registered an inhibition constant Ki in test [1] of 0.057 µM.

`CN(C)C[C@@H](c1ccc2ccccc2c1)[C@@H](O)c1ccccc1` (racemic) came in with a Kd in test [3] of 0.00559 µM.

In test [3], `CC(C)(C)[C@H](O)[C@@H](CN)c1ccccc1` (racemic) showed an equilibrium dissociation constant (Kd) of 1.1 µM. This compound gave a Ki in test [1] of 0.7 µM.

`COc1ccc([C@H](CN(C)C)[C@@H](O)C2CCCCC2)cc1` (racemic) showed a dissociation constant Kd in test [3] of 0.03 µM. The Ki in test [1] turned out to be 0.03 µM.

`CC(C)(C)[C@H](O)[C@@H](CN)c1ccc2ccccc2c1` (racemic): the affinity in test [3], expressed as Kd, was 0.0061 µM.

Compound `CCOc1ccccc1OCC1CNCCO1` (racemic) [VILOXAZINE] gave a Kd in test [3] of 17.3 µM. Besides, affinity in test [1] was put at a Ki of 16.5 µM.

Broadly, the Ki is a dissociation constant, usually derived from enzyme kinetics or from competition with a known ligand. The low end stands for higher affinity, the high end for lower affinity. Broadly, the Kd is a measure of binding affinity in units of concentration.
